# Results published in PubChem BioAssay AID463193 (University of Pittsburgh Molecular Library Screening Center, 2010).
# Only a part is listed here, and it is no random draw. Active and inactive are the calls of the source.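 The calls were made as follows: active = percentage of spot-positive cells more than 3 SD above its plate mean, without a fluorescence outlier flag or 80% toxicity; inconclusive = no clear call, values can overlap the other calls; inactive = the rest.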
# Assay: GFP-LC3 puncta formation changes – imaging, high-content, MEF GFP-LC3, primary screen (AID 463193);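 also: spot-positive cell cutoff set from DMSO-treated cells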
# Details: autophagy, at 10 µM, active compounds read high
row,SMILES,% cells with GFP-LC3 spots
1,CP(=O)(Nc1cccc(Br)c1)Oc1ccccc1 (stereo unspecified),inactive: 13.2%
